Test results published in patent US8188306B2, “Heat shock protein 90 inhibitors” (University of Kansas, priority 2004, dated 2012).

Protein sequences, listed by entry. Tags and fused reporters are not part of them.
UniProt P02829, whole entry: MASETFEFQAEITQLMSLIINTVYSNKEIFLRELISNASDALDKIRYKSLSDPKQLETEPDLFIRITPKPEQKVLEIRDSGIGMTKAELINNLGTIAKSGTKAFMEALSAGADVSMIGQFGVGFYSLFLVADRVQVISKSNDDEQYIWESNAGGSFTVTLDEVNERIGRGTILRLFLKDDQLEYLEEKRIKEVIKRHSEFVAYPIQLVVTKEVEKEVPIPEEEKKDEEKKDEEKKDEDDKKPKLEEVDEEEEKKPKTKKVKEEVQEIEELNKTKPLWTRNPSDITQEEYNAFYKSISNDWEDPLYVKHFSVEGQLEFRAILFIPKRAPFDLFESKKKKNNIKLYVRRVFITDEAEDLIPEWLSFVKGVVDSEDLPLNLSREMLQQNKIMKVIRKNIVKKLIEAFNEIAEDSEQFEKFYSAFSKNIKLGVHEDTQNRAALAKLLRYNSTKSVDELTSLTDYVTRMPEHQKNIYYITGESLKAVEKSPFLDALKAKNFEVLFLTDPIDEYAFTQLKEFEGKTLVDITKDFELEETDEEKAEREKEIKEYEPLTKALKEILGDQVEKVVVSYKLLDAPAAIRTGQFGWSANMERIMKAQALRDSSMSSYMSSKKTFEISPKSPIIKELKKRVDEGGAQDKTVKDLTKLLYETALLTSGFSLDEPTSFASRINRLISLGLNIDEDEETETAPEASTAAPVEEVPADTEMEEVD

Assays:
[1] = target: Recombinant yeast Hsp90 (Saccharomyces cerevisiae, UniProt P02829); test: Inhibition of Hsp90 ATPase activity, production of inorganic phosphate; assay type: biochemical
[2] = tested on: Hsp90-dependent client proteins, Raf and HER-2; test: Western Blot of Hsp90-dependent client proteins in MCF-7 breast cancer cells; conditions: increasing concentrations
[3] = read-out: IC50 (μm), incubated with ATP, table
[4] = read-out: IC50 / inhibitory activity, incubated with ATP

| pIC50 [1, 3] | pIC50 [1, 4] | SMILES | Hsp90-dependent client proteins Raf and HER-2 by Western Blot [2] |
| --- | --- | --- | --- |
| < 4.40 | < 4.40 | COC(=O)c1c(O)cc(O)c(Cl)c1CCC(=O)Nc1cc(OC)c(OC)cc1OC |  |
| 5.74 | 5.23 | COC(=O)c1c(O)cc(O)c(Cl)c1CCC(=O)Nc1cc(O)c(OC)cc1O | decrease |

pIC50: −log10 of the molar value. Read-outs that look alike come from different tables or passages of the source.
